This test can be described thus: Inhibition Assay: PLK3 inhibition was determined using the Z-Lyte assay kit from Invitrogen (cat #PV3802). The assay was performed using the recommended manufacturer's instructions with 100 μM ATP and 21 nM PLK3 (Invitrogen cat #PV3812). The % inhibition values were determined according to the manufacturer's directions and IC50 values were obtained using a non-linear 4 point logistic curve fit (XLfit4, IDBS).

As to `COc1ccc2c(c1)[C@]1(C[C@H]1c1ccc3c(C#Cc4ccc(CN5CCOCC5)cc4)n[nH]c3c1)C(=O)N2`, the IC50 entry was “in the range around 550 nM”.

By IC50 is commonly meant the concentration needed to halve the response being measured.
